pKi: −log10 of the molar value.
Biological target: Metabotropic glutamate receptor 5 (Rattus norvegicus, UniProt P31424)
Experiment: Displacement of [3H]MPEP from mGluR5 in rat brain membrane
Format: cell membranes

Amino acid sequences for entries named in this document (tags omitted).
UniProt P31424, whole entry: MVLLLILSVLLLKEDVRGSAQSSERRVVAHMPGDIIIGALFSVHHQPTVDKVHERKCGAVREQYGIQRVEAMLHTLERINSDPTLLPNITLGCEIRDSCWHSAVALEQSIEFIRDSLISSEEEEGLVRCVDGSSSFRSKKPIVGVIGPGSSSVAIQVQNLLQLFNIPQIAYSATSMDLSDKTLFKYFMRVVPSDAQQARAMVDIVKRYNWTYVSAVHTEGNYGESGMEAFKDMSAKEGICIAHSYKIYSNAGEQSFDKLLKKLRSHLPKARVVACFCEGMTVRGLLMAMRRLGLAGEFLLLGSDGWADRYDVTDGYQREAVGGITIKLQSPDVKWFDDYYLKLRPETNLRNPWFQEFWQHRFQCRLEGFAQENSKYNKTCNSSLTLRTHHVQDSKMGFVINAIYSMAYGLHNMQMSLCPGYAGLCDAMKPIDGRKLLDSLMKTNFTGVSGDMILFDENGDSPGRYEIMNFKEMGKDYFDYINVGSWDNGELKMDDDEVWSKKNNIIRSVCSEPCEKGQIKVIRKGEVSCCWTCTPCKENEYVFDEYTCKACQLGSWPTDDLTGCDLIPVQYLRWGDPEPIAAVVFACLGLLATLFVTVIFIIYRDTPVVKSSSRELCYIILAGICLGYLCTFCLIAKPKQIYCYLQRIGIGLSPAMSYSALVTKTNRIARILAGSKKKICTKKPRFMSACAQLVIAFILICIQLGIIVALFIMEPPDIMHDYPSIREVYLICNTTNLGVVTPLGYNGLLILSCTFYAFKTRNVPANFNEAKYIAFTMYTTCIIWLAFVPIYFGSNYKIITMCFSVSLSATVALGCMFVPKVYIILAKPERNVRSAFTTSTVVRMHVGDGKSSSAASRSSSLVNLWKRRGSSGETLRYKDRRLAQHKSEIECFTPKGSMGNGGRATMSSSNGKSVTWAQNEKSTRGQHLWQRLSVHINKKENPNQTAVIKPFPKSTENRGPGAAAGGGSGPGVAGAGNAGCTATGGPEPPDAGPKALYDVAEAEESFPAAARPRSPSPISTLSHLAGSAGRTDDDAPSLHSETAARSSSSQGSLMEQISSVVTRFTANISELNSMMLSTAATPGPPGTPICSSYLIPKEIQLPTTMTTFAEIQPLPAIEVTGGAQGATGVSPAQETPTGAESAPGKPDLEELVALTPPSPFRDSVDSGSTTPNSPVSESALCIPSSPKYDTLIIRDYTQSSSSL

Structure (SMILES): Cc1cccc(C#Cc2ccccc2)n1
- pKi: 7.68

Reference: ChEMBL document CHEMBL1139181, “Design and synthesis of novel heterobiaryl amides as metabotropic glutamate receptor subtype 5 antagonists” (Bioorg Med Chem Lett, 2007)
